In patent US6506876B1, “LTA4 hydrolase inhibitor pharmaceutical compositions and methods of use” (G.D. Searle & Co., priority 1994, dated 2003):

Columns and labels:
[1] = molecular target: T1, recombinant human LTA4 hydrolase (rhLTA4H) (Homo sapiens, UniProt P09960); assay: Recombinant human LTA4 hydrolase assay for LTA4 hydrolase inhibitor activity; conditions: Recombinant Human LTA4 Hydrolase Assay IC50 LTA4H
T1 sequence (P09960 1-611): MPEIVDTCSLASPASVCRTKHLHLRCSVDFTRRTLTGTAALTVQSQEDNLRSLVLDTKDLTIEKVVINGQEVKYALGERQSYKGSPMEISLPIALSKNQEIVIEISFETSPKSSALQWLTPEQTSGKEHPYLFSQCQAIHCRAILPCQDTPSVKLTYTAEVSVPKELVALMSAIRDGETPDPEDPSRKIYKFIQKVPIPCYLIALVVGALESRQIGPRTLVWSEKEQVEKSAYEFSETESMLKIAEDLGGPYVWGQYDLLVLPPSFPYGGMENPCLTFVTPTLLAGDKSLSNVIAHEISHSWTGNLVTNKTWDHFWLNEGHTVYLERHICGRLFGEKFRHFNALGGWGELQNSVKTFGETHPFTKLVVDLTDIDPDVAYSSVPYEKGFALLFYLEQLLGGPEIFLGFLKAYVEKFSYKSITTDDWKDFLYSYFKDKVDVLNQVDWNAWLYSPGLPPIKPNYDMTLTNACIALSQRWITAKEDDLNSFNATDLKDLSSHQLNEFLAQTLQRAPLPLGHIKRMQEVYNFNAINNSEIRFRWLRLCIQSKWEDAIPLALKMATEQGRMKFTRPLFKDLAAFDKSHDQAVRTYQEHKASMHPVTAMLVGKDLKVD

[2] = test system: LTB4 production in human whole blood (LTA4 hydrolase); assay: LTB4 production by calcium ionophore stimulated human blood; type: cell-based; conditions: Homo sapiens, read-out: Inhibition of Calcium Ionophore-Induced LTB4 Production in Human Blood IC50 HWB

SMILES | IC50 [1] [nM] | IC50 [2] [nM]
CN(CCCOc1ccc(Cc2ccccc2)cc1)CCC(=O)O [Example 434] | 10 | –
[O-][n+]1ccc2c(c1)ncn2CCOc1ccc(Cc2ccccc2)cc1 [Example 365] | – | 336
